In patent US7439226B2, “Serine protease inhibitors” (The United States of America as represented by the …, priority 2003, dated 2008):

Biological target: T1, 70-kDa activated matriptase (Homo sapiens, UniProt Q9Y5Y6)
T1 sequence (Q9Y5Y6 615-855 limits assumed): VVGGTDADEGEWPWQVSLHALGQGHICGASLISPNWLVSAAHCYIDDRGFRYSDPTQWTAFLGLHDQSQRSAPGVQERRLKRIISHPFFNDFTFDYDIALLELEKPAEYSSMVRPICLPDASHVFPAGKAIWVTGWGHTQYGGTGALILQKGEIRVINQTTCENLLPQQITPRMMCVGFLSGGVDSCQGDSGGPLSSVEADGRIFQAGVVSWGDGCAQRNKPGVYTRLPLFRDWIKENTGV
T1 sequence (Q9Y5Y6 190-614 partner limits assumed): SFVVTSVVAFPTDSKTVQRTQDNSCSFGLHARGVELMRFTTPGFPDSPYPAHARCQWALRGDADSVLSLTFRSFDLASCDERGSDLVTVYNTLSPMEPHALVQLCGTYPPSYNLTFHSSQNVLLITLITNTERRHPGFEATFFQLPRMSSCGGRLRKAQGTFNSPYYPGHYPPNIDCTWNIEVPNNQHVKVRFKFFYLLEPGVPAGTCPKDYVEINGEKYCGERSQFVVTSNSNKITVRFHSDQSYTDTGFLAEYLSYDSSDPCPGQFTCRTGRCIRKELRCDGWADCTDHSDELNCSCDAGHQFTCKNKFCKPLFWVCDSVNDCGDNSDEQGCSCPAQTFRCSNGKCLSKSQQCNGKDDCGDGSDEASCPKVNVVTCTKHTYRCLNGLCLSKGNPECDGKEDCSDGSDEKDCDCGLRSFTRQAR
Test: Matriptase inhibition, fluorescent substrate N-t-Boc-Gln-Ala-Arg-AMC, Ki by Dixon plots

Work on `CC[C@H](C)[C@@H]1NC(=O)[C@@H]2CCCN2C(=O)[C@@H]2CCCN2C(=O)[C@H]([C@@H](C)CC)NC(=O)[C@H](CO)NC(=O)[C@H](CCCCN)NC(=O)[C@H]([C@@H](C)O)NC(=O)[C@@H]2CSSC[C@H](NC1=O)C(=O)N[C@@H](Cc1ccccc1)C(=O)N1CCC[C@H]1C(=O)N[C@@H](CC(=O)O)C(=O)NCC(=O)N[C@@H](CCCNC(=N)N)C(=O)N2` [SFTI-1] yielded a Ki of 0.92 nM.
